Target: Carbonic anhydrase 2 (Homo sapiens, UniProt P00918)

NS(=O)(=O)O [SULFAMATE]
Ki: 97 µM
